From PubChem BioAssay (NCI)
Some salts and complexes are drawn in separate pieces, as the source files them; their charges need not balance.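 Briefly, cells in 96-well plates were exposed to five compound concentrations for 48 h, and endpoints were estimated by linear interpolation. Abbreviation: GI50, concentration required for 50% inhibition of growth. The concentration for full growth arrest is given as TGI.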

Key:
Assay in all cases: growth of human tumour cells (NCI), 48 h
DMS 114 small cell lung = tested on: DMS 114 small cell lung
M14 melanoma = tested on: M14 melanoma
OVCAR-4 ovarian = tested on: OVCAR-4 ovarian
NCI-H460 lung = tested on: NCI-H460 lung
NCI-H226 lung = tested on: NCI-H226 lung
UACC-257 melanoma = tested on: UACC-257 melanoma
SNB-78 CNS = tested on: SNB-78 CNS
SK-MEL-28 melanoma = tested on: SK-MEL-28 melanoma
K-562 leukemia = tested on: K-562 leukemia
786-0 renal = tested on: 786-0 renal
UO-31 renal = tested on: UO-31 renal
KM20L2 colon = tested on: KM20L2 colon
SF-539 CNS = tested on: SF-539 CNS
NCI-H322M lung = tested on: NCI-H322M lung
HOP-92 NSCLC = tested on: HOP-92 NSCLC
HCC-2998 colon = tested on: HCC-2998 colon
SNB-19 CNS = tested on: SNB-19 CNS
NCI-H522 lung = tested on: NCI-H522 lung
IGROV1 ovarian = tested on: IGROV1 ovarian
ACHN renal = tested on: ACHN renal
OVCAR-5 ovarian = tested on: OVCAR-5 ovarian
SF-295 CNS = tested on: SF-295 CNS
MALME-3M melanoma = tested on: MALME-3M melanoma
HCT-116 colon = tested on: HCT-116 colon
KM12 colon = tested on: KM12 colon
RXF 393 renal = tested on: RXF 393 renal
DLD-1 colon = tested on: DLD-1 colon
OVCAR-3 ovarian = tested on: OVCAR-3 ovarian
SK-MEL-5 melanoma = tested on: SK-MEL-5 melanoma
SK-MEL-2 melanoma = tested on: SK-MEL-2 melanoma
UACC-62 melanoma = tested on: UACC-62 melanoma
LOX IMVI melanoma = tested on: LOX IMVI melanoma
HOP-18 NSCLC = tested on: HOP-18 NSCLC
NCI-H23 lung = tested on: NCI-H23 lung

C(c1nnn[n-]1)c1nnn[n-]1.[Au+].[Au+].c1ccc([PH+](c2ccccc2)c2ccccc2)cc1.c1ccc([PH+](c2ccccc2)c2ccccc2)cc1 gave a TGI (DMS 114 small cell lung) of 2120 nM, a GI50 (M14 melanoma) of 731 nM and a TGI (M14 melanoma) of 2350 nM. For the same compound, the GI50 (OVCAR-4 ovarian) was 739 nM, the TGI (OVCAR-4 ovarian) was 2150 nM and the GI50 (NCI-H460 lung) was 1680 nM. For the same compound, the TGI (NCI-H460 lung) was 3640 nM, the GI50 (NCI-H226 lung) was 867 nM and the TGI (NCI-H226 lung) was 2110 nM. The GI50 (UACC-257 melanoma) was 742 nM, the TGI (UACC-257 melanoma) was 2220 nM and the GI50 (SNB-78 CNS) was 514 nM. The TGI (SNB-78 CNS) was 2970 nM, the GI50 (SK-MEL-28 melanoma) was 637 nM and the TGI (SK-MEL-28 melanoma) was 2020 nM. The GI50 (K-562 leukemia) was 362 nM, the TGI (K-562 leukemia) was 3870 nM and the TGI (786-0 renal) was 1020 nM. The GI50 (UO-31 renal) was 1600 nM, the TGI (UO-31 renal) was 2950 nM and the GI50 (KM20L2 colon) was 1210 nM. It also gave a TGI (KM20L2 colon) of 2550 nM, a GI50 (SF-539 CNS) of 1410 nM and a TGI (SF-539 CNS) of 2740 nM. It also gave a GI50 (NCI-H322M lung) of 1560 nM, a TGI (NCI-H322M lung) of 2980 nM and a GI50 (HOP-92 NSCLC) of 678 nM. For the same compound, the TGI (HOP-92 NSCLC) was 1710 nM, the GI50 (HCC-2998 colon) was 1700 nM and the TGI (HCC-2998 colon) was 4590 nM. It also gave a GI50 (SNB-19 CNS) of 1180 nM, a TGI (SNB-19 CNS) of 2410 nM and a GI50 (NCI-H522 lung) of 149 nM. It also gave a TGI (NCI-H522 lung) of 386 nM, a GI50 (IGROV1 ovarian) of 701 nM and a TGI (IGROV1 ovarian) of 2490 nM. The GI50 (ACHN renal) was 1250 nM, the TGI (ACHN renal) was 2520 nM and the GI50 (OVCAR-5 ovarian) was 1940 nM. The TGI (OVCAR-5 ovarian) was 3400 nM, the GI50 (SF-295 CNS) was 1550 nM and the TGI (SF-295 CNS) was 2890 nM. For the same compound, the GI50 (MALME-3M melanoma) was 666 nM, the TGI (MALME-3M melanoma) was 2830 nM and the GI50 (HCT-116 colon) was 1430 nM. The TGI (HCT-116 colon) was 3900 nM, the GI50 (KM12 colon) was 1630 nM and the TGI (KM12 colon) was 3710 nM. It also gave a TGI (RXF 393 renal) of 857 nM, a GI50 (DLD-1 colon) of 294 nM and a TGI (DLD-1 colon) of 1550 nM. The GI50 (OVCAR-3 ovarian) was 1000 nM, the TGI (OVCAR-3 ovarian) was 2230 nM and the GI50 (SK-MEL-5 melanoma) was 399 nM. The TGI (SK-MEL-5 melanoma) was 1620 nM, the GI50 (SK-MEL-2 melanoma) was 783 nM and the TGI (SK-MEL-2 melanoma) was 2090 nM. The TGI (UACC-62 melanoma) was 2120 nM, the GI50 (LOX IMVI melanoma) was 992 nM and the TGI (LOX IMVI melanoma) was 2190 nM. For the same compound, the GI50 (HOP-18 NSCLC) was 1180 nM, the TGI (HOP-18 NSCLC) was 2410 nM and the GI50 (NCI-H23 lung) was 1030 nM. The TGI (NCI-H23 lung) was 2550 nM.
